Data taken from patent US20230203485A1, “METHODS FOR MODULATING MHC-I EXPRESSION AND IMMUNOTHERAPY USES THEREOF” (Dana-Farber Cancer Institute, Inc., priority 2020, published 2023).

B1: IFN-13: type I interferon (IFNβ in FIG. 1M legend) (protein, UniProt P01574 22-187, looked up)
Interferon beta: MSYNLLGFLQRSSNFQCQKLLWQLNGRLEYCLKDRMNFDIPEEIKQLQQFQKEDAALTIYEMLQNIFAIFRQDSSSTGWNETIVENLLANVYHQINHLKTVLEEKLEKEDFTRGKLMSSLHLKRYYGRILHYLKAKEYSHCAWTIVRVEILRNFYFINRLTGYLRN
B2: IFN-β: interferon beta (protein, UniProt P01574 22-187, looked up)
Interferon beta: B1 Interferon beta

Experiments:
[1] = system: HLA I surface expression on MCC cell lines; assay: Flow cytometry for HLA-I surface expression (anti-HLA-ABC, W6/32) in MCC lines at baseline and after interferon or MEK inhibitor treatment; format: cell-based, human; settings: two lines (FIG. 1M: MCC-290, MCC-301); 24 hours
Protocol: The overlaid black line plot indicates the percentage of tumor cells that stained positive for HLA-I by IHC of the corresponding original tumor (right y-axis).
FIG. 1M comprises graphs showing the effect of type I and type II interferons on surface MHC I expression in MCC by flow cytometry. 5×10^5 MCC cells were treated with the indicated doses of IFNα2β, IFNβ, or IFNγ for 24 hours. Representative histogram plots show cells stained with anti-HLA class I or isotype antibodies. The experiment was performed in the MCPyV− line MCC-290 (left) and the MCPyV+ line MCC-301 (right).
Cells were dissociated with Versene and incubated with 5 μL Human TruStain FcX (Fc receptor blocking solution; Biolegend, Dedham, Mass.) per million cells in […] at room temperature for 10 min. Fluorochrome-conjugated antibodies or respective isotype controls were immediately added and incubated for another 30 min at 4° C. Cells were then washed once with PBS and resuspended in PBS containing 4% paraformaldehyde and analyzed on LSR Fortessa cytometers. Additional steps were described for individual experiments as below. For upregulation of HLA Class I experiment, 5×10^5 MCC cells were treated with increasing doses of IFNα2b, IFN3, IFNγ for 24 hours, or MEK inhibitors and DMSO for 72 hours before staining with W6/32 and Live/Dead as above.

surface HLA-I = assay: Interferon treatment of MCC lines, surface HLA-I by flow cytometry; format: cell-based, human; settings: two lines
Protocol: Cells were dissociated with Versene and incubated with 5 μL Human TruStain FcX (Fc Receptor Blocking Solution; Biolegend #422302) per million cells in 100 μL at room temperature for 10 min. Fluorophore-conjugated antibodies or respective isotype controls were added and incubated for another 30 min at 4° C. Cells were then washed once with PBS and resuspended in PBS or 4% paraformaldehyde and analyzed on an LSR Fortessa cytometer. For HLA-I and HLA-II detection, the following antibodies were used: HLA-ABC (W6/32 clone) conjugated to PE (BioLegend #311406), APC (BioLegend #311410), or AF647 (Santa Cruz Biotechnology #sc32235 AF647), and HLA-DR-FITC (BioLegend #307604).

Row | Molecule | HLA I surface expression [1] | HLA-I upregulation (surface HLA-I)
1 | IFN-a-2b: type I interferon, recombinant human | could be upregulated | 
2 | IFN-α-2b: interferon alpha-2b |  | upregulate HLA-I
3 | B1 | could be upregulated | 
4 | B2 |  | upregulate HLA-I
